IC50 data for two compounds are collected here from patent publication US20060004002A1 (priority 2004, published 2006).

Sequences of proteins named here, by UniProt entry; tags and fusion partners are left off.
UniProt P12931, whole entry: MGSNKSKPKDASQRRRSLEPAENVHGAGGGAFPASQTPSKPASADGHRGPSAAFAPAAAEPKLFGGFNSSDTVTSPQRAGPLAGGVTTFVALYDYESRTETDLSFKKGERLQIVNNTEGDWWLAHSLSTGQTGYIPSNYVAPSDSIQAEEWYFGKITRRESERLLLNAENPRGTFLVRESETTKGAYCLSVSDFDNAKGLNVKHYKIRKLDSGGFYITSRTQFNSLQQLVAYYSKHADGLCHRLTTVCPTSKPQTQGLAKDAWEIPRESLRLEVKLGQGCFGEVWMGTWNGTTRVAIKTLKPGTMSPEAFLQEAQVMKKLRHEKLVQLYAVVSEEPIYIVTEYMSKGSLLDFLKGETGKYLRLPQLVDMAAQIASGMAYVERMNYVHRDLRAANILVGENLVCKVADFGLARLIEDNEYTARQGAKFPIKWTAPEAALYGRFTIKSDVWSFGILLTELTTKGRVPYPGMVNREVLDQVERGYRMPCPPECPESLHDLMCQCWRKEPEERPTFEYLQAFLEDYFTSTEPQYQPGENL

The term IC50 denotes the concentration at which inhibition is half-maximal.

This experiment addresses Recombinant human Src (Homo sapiens, UniProt P12931). The experiment is described as follows: Src tyrosine kinase activity assay with poly E4Y and 32P-ATP. To be noted: read-out: IC50 Value Src, NI = no inhibition. On the procedure: Recombinant human Src was expressed using the baculovirus-insect cell system and purified as published (Budde et al., 1993 and 2000). Recombinant Csk and the FGF receptor (FGFr) were expressed as […] fusion proteins using the pGEX expression vector and E. coli, and purified as described (Sun & Budde, 1995).
The tyrosine kinase activity of Src, Csk and FGFr was determined using poly E4Y and ^32P-ATP. Briefly, enzymes were assayed in a reaction mixture […] consisting of 0.15 M EPPS-NaOH (pH 8.0) with 6 mM MgCl2, 0.2 mM γ^32P-ATP (0.2-0.4 mCi/μmol), 10% glycerol, 0.1% Triton X-100, and poly E4Y. Poly E4Y is a synthetic peptide whose phosphorylation is measured in this assay by the addition of the radioactively labeled phosphate from the ATP (Budde et al., 1995). For screening assays, 50 μg/ml poly E4Y was used, and for Ki determinations variable concentrations (0, 20, 30, 75, and 150 μg/ml) of poly E4Y were used. When ATP was varied (0, 50, 100 and 250 μM), poly E4Y was kept constant at 150 μg/ml.

Regarding `CCOc1ccccc1-c1sc2c(NN=Cc3cccs3)ncnc2c1C#N`, the IC50 is 0.0041 µM.
The same measure for `CCOc1ccccc1-c1sc2c(NN=Cc3ccc(F)c(Cl)c3)ncnc2c1C#N`: 0.027 µM.
